Test results: ChEMBL document CHEMBL1165920, “Structural determinants for the inhibitory ligands of orotidine-5'-monophosphate decarboxylase” (Bioorg Med Chem, 2010)

Target: T1, Uridine 5'-monophosphate synthase (Homo sapiens, UniProt P11172)
T1 sequence (P11172 whole entry): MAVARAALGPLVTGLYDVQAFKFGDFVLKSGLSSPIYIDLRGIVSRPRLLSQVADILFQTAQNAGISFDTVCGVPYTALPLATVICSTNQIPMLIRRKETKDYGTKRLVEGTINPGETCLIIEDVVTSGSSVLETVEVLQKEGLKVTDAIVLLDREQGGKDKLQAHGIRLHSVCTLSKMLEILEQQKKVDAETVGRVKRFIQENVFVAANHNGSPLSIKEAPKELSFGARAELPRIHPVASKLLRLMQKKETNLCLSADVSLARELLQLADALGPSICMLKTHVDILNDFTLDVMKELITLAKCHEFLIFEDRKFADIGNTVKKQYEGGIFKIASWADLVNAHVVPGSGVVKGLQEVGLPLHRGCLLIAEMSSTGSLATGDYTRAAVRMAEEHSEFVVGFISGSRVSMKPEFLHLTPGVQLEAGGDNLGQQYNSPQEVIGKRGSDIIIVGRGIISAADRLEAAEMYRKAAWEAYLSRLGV
Experiment: Inhibition of human uridine 5'-monophosphate synthase after overnight incubation at room temperature by UV spectroscopy

## NC(=O)c1[nH]nc([C@@H]2O[C@H](COP(=O)(O)O)[C@@H](O)[C@H]2O)c1O
  Ki: 17 nM
